“And” between values parts separate entries of the source, which are not always exact repeats. Identical values can stand only once. Like-named read-outs stand apart in the source and are kept apart here.

Chains of the proteins cited; added tags and fusions are not shown. Residues count along the entry.
UniProt O42275, 24-633: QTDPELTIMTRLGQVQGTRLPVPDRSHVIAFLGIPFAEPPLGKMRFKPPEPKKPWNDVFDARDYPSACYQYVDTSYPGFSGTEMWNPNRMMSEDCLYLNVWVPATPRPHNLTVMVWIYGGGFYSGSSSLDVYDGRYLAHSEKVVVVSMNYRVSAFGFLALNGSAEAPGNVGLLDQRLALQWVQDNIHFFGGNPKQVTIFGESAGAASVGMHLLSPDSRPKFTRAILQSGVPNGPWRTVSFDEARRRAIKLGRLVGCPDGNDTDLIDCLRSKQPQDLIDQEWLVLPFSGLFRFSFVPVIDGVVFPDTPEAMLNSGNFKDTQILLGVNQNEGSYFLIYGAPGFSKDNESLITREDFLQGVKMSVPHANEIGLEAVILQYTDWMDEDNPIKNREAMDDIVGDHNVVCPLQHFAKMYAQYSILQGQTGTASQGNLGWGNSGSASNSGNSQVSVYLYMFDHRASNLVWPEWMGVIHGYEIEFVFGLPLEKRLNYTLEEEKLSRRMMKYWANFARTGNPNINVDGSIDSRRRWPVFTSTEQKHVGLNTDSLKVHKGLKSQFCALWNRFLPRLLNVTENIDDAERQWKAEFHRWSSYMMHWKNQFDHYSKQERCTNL

The target in this assay is acetylcholinesterase (AChE) (Electrophorus electricus, UniProt O42275). The following applies: for IC50: estimated from Fig. 1; for Ki: read-out: Ki (inhibition constant), Lineweaver-Burk analysis.

What is called Ki is a dissociation constant, usually derived from enzyme kinetics or from competition with a known ligand. With “1-Hydroxyquinopimaric acid [Compound U-201]”, the Ki stood at 3.89 mM. Moreover, the IC50 (30 °C, pH 8.0, 1.25% DMSO) is ~7.81 mM and 7.81 mM. In addition, where the note is “expressed in g L^−1”, the IC50 entry is on record as “≈ 2.9 g L^−1”. Further, the IC50 (expressed in ppm) was 2990 ppm.
For Cytisine-12-carbamide [Compound A-36], the Ki stood at 6.71 mM. The IC50 (expressed in ppm) is recorded as greater than 3000 ppm.

These data come from paper PMC6718946 (Toxicology Reports, 2019).
